Laboratory results taken from ChEMBL document CHEMBL4834454, “Rational design of cannabinoid type-1 receptor allosteric modulators: Org27569 and PSNCBAM-1 hybrids” (Bioorg Med Chem, 2021).

By UniProt entry, the sequences of proteins in these tests, tags left out.
UniProt P21554, whole entry: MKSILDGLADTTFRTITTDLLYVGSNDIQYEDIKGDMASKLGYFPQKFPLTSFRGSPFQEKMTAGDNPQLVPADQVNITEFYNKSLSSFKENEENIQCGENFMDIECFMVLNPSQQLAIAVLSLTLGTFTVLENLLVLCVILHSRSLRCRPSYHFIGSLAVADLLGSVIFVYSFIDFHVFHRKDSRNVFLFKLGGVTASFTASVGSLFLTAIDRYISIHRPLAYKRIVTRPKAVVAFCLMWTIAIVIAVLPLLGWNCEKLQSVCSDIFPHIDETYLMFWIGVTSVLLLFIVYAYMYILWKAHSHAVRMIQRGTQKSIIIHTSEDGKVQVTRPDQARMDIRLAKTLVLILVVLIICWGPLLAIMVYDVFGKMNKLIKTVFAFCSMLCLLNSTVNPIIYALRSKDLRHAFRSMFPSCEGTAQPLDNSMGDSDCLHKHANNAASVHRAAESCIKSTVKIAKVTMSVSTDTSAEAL

Molecular target: Cannabinoid receptor 1 (Homo sapiens, UniProt P21554)
Experiment: Allosteric antagonist activity at N-terminal 3HA-tagged human CB1 receptor expressed in HEK293 cells assessed as reduction in CP55940-stimulated inhibition of forskolin-induced cAMP accumulation measured for 20 mins by BRET assay
Type: functional, cell-based
How it was run: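 HEK293 cells stably expressing 3HA-tagged hCB1, transiently transfected with CAMYEL BRET cAMP sensor, plated at 60,000 cells/well, serum-starved 30 min. Coelenterazine H 5 µM final, added 5 min before co-addition of forskolin 5 µM, CP55,940 1 µM and serially diluted modulator. BRET read at 37°C about 20 min. […] 3-parameter fit, three independent experiments.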

O=C(Nc1ccc(Cl)cc1)Nc1cccc(-c2cccc(N3CCCC3)n2)c1
pIC50: 6.4
